The values below come from ChEMBL document CHEMBL6096698, “Discovery of a Selective and Orally Bioavailable RET Degrader with Effectiveness in Various Mutations” (J Med Chem, 2025).

For this experiment, the system named is BaF3. Put plainly: PROTAC activity at CRBN/KIF5B-RET G810C mutant (unknown origin) expressed in mouse BaF3 cells assessed as fold change in RET level at 20 nM incubated for 24 hrs by quantitative proteomic analysis relative to control. It counts as cell-based.

Regarding `COc1ccc(CN2C3CC2CN(c2ccc(-c4cc(N5CCC(N6CCN(CCCC#Cc7cccc8c7CN(C7CCC(=O)NC7=O)C8=O)CC6)CC5)cn5ncc(C#N)c45)cn2)C3)cn1` (stereo unspecified), the fold change (FC) was less than 0.22.
